The values below come from patent US12343326B2, “Psychoactive medicines and their use for treating psychiatric and neurological conditions and disorders” (Transcend Therapeutics, Inc., priority 2021, dated 2025).

Test [1] concerns 168 GPCRs. Put plainly: β-arrestin based GPCR screen (PathHunter / GPCRmax), agonist mode. The class given is cell-based. Conditions: 1 or 10 mM.
For test [2], the system named is 168 GPCRs. Put plainly: β-arrestin based GPCR screen (PathHunter / GPCRmax), antagonist mode. To be noted: 1 or 10 mM.

Turning to `CNC(C)C(=O)c1ccc2c(c1)OCO2` (centres unmarked) [methylone, 3,4-methylenedioxy-N-methylcathinone], the “agonist activity in GPCRmax screen of 168 GPCRs” value with 168 GPCRs [1] is “no significant agonist activity”. Besides, in the test on 168 GPCRs [2], the “antagonist activity in GPCRmax screen of 168 GPCRs” value is on record as “No antagonist activity was detected”.
